Experiments:
[1] = system: TPBP2 (C-terminus truncated CpomPBP2); test: 1-NPN fluorescence / competitive binding assay on C-terminus truncated CpomPBP2; conditions: read-out: binding constant of 1-NPN; 2 μM TPBP2, 50 mM Tris-HCl pH 6.8, binding curve and Scatchard plot
CpomPBP2 = CpomPBP2 (Cydia pomonella, UniProt I3ZNT9); test: Competitive fluorescence binding assay with 1-NPN probe; conditions: read-out: dissociation constant (KD) of 1-NPN; 2 μM CpomPBP2, 50 mM Tris-HCl pH 6.8, binding curve and Scatchard plot

Protein sequences, listed by entry. Tags and fused reporters are not part of them. Residues count along the entry.
UniProt I3ZNT9, 26-169 limits assumed: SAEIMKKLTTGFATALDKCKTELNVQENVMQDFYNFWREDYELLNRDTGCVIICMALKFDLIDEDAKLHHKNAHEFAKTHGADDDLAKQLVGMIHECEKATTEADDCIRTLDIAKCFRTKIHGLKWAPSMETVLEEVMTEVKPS

c1ccc(Nc2cccc3ccccc23)cc1
Kd [1]: 15.4 µM | Kd (CpomPBP2): 7.85 µM
